For one assay, the target named is T1, E. coli PBP1b (Escherichia coli, UniProt P02919).
T1 sequence (P02919 1-844): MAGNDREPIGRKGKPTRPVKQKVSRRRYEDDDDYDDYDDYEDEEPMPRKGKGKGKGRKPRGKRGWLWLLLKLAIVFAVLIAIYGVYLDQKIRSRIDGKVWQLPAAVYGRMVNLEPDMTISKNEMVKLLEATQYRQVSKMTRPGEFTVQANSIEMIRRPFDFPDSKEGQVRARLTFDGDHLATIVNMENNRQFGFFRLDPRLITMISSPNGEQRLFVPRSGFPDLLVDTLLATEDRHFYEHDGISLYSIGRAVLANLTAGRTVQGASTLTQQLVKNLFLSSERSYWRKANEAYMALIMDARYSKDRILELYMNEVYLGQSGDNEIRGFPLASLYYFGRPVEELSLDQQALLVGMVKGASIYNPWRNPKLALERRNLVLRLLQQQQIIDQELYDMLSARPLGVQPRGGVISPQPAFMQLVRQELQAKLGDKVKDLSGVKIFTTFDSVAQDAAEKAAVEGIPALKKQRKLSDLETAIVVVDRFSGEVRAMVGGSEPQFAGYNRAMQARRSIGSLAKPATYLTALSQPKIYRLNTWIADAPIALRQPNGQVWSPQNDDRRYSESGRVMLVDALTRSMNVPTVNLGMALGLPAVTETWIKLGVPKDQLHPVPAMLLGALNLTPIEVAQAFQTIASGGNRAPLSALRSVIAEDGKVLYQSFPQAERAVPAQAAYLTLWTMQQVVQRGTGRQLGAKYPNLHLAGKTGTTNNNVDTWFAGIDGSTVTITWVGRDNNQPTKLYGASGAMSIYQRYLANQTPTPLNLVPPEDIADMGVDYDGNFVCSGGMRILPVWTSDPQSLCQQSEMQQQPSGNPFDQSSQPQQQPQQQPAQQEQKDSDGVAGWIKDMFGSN
Put plainly: Fluorescence polarisation direct binding assay, PBP 1b. To be noted: PBP Tested 1b; fluorescein-labelled peptide (Sar6-Lysine linker, C-terminus). How it is done: Fluorescence polarisation was carried out using fluorescein-labelled peptides with unmodified PBP protein and measured using a PHERAstar FS by BMG Labtech fitted with a FP 485 520 520 optic module.
Fluorescent peptides at 10 mM in DMSO were diluted to 2.5 nM in binding buffer (10 mM HEPES, pH8, 300 mM NaCl, 2% glycerol). A two-fold dilution series of PBP protein was then prepared across 12 wells in binding buffer, with the highest concentration being 21 μM, and the lowest concentration being 17 nM.
10 μl diluted fluorescent peptide (2.5 nM) was added into 12 wells of a 384-Well NBS™ Low Volume Microplate (Fisher Scientific). 10 μl PBP dilution series was then added to the wells containing the fluorescent peptide, and 5 μl binding buffer was added to bring the total volume to 25 μl and the final concentration of peptide tracer to 1 nM. A control well lacking PBP protein was prepared with a final peptide concentration of 1 nM to a final volume of 25 μl in binding buffer. Fluorescence polarisation was measured every 5 minutes for a period of one hour at room temperature. The gain and focal height were optimised using the control well lacking protein. Wells were excited at 485 nm, and emission detection was set at 520 nm.
Data were analysed in GraphPad software to derive values for the dissociation constant. Experiments were repeated at least three times. […]

The target of a further assay is T2, PBP3 of E. coli (E. coli, UniProt P0AD68 57-577, limits assumed).
T2 construct: also called E. coli PBP3; FtsI
T2 sequence (looked up): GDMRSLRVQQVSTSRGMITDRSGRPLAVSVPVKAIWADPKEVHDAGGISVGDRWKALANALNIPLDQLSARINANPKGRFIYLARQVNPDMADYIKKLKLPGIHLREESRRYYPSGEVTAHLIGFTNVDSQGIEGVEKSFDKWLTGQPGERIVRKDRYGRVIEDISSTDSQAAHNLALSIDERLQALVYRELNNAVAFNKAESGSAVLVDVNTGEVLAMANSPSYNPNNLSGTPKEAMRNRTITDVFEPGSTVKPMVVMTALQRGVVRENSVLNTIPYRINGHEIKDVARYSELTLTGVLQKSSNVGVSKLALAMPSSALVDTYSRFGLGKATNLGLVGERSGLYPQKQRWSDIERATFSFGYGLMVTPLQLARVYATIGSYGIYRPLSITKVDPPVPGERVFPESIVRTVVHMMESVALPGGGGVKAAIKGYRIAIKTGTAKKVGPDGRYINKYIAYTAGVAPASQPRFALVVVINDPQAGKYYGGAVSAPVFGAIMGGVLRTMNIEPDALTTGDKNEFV
Put plainly: fluorescence polarisation competition; unlabelled peptide against BODIPY-penicillin (Bocillin) tracer, PBP at 800 nM.

Turning to A-(SEQ ID NO: 32)-A [BCY14619], on E. coli PBP1b, the affinity, expressed as Kd, was 49 nM.

B1: BCY12132 (unlabelled, unmodified peptide) (peptide)
peptide: ACRTFGCWWEGCA
modifications: Ci, Cii and Ciii cyclised with TATA scaffold
notes: Bicyclic peptide
With B1, the Ki in the assay with PBP3 of E. coli was 570 nM.

B2: BCY12130 (unlabelled, unmodified peptide) (peptide)
peptide: ACSFPKCPWVEGCA
modifications: Ci, Cii and Ciii cyclised with TATA scaffold
notes: Bicyclic peptide
For B2, affinity with PBP3 of E. coli was put at a Ki of 240 nM.

Values taken from patent publication US20220281918A1, “PBP BINDING BICYCLIC PEPTIDE LIGANDS” (BicycleTx Limited, priority 2019, published 2022).
